Reference: patent publication US12478617B2, “Lipidated peptide inhibitors of interleukin-23 receptor” (JANSSEN BIOTECH, INC., priority 2021, dated 2025)

These compounds were tested against T1, IL-23R (Homo sapiens, UniProt Q5VWK5) (assay: IL23R Reporter Assay). Conditions: HEK293 cells containing IL-23R, IL-12Rβ1 and STAT-inducible firefly luciferase reporter; 10 ng/mL IL-23 (EC90); 5 h at 37° C.; read-out: IC50.
T1 construct: HEK293 cells containing IL-23R, IL-12RP31 and a firefly luciferase reporter gene driven by a STAT-inducible promoter (Promega); host or cells: HEK293
T1 sequence (Q5VWK5 24-629): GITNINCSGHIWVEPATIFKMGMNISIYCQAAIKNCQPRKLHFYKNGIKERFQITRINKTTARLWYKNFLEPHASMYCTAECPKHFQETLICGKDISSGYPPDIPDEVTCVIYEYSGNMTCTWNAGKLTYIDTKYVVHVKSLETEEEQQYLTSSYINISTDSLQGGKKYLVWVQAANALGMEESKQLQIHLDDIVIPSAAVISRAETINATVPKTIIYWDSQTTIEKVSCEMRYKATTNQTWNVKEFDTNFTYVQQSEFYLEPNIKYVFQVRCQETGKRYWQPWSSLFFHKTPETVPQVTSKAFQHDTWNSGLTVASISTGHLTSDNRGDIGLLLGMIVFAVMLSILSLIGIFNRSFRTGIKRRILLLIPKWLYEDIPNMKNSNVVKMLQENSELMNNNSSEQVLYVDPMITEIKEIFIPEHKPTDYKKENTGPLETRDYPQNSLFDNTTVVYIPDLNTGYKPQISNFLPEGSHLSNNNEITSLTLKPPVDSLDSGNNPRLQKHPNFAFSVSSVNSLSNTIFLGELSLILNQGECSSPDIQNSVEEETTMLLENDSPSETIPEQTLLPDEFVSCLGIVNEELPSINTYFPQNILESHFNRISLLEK
Type: cell-based
Source text: IL-23 binding to IL-23 receptors results in the activation of the Signal Transducer and Activator of Transcription 3 (STAT3) by phosphorylation and downstream signaling events. Accordingly. the ability of the inhibitors described herein to block IL-23 action can be assessed by monitoring the status of STAT3 activation in response to IL-23. This may be accomplished in reporter cell assays or in intact cells such as peripheral blood mononuclear cells (PBMCs).
Compounds were serially diluted in 100% (v/v) DMSO) and plated using an Echo acoustic dispenser (Labcyte) into 1536-well non-treated black assay plates (Corning #9146). 3 µL of HEK293 cells containing IL-23R, IL-12RP31 and a firefly luciferase reporter gene driven by a STAT-inducible promoter (Promega) were added to the plates (4000 cells/well), followed by 3 μL of 10 ng/mL IL-23 (equivalent to EC90 concentration). After 5 h at 37° C., 5% CO2, 95% relative humidity, cells were placed at 20° C. and treated with BioGlo reagent (Promega) according to the Manufacturer's instructions. Luminescence was measured on a Pherastar FSX (BMG LabTech). The data, provided in Tables 5a and 5b, were normalized to IL-23 treatment (0% inhibition) and 30 μM of control inhibitor (100% inhibition), and IC50 values were determined using a 4-parameter Hill equation.

Row | IC50 [nM] | SMILES
1 | 0.12 | CC(=O)NCCCC[C@@H]1NC(=O)[C@H](Cc2c[nH]c3c(C)cccc23)NC(=O)[C@H]([C@@H](C)O)NC(=O)[C@H](CC(N)=O)NC(=O)[C@@H](NC(=O)[C@@H](CCCNC(=N)N)NC(C)=O)C(C)(C)SSC(C)(C)[C@@H](C(=O)N[C@@H](Cc2ccc(OCCN)cc2)C(=O)N[C@@H](Cc2ccc3ccccc3c2)C(=O)NC2(C(=O)N[C@@H](CCC(=O)O)C(=O)N[C@@H](CC(N)=O)C(=O)N[C@@H](Cc3cccnc3)C(=O)N[C@@H](CCCCNC(=O)COCCOCCNC(=O)COCCOCCNC(=O)CC[C@H](NC(=O)CCCCCCCCCCCCCCCCC(=O)O)C(=O)O)C(N)=O)CCOCC2)NC1=O [Example 18, MeCO-r-Pen*-N-T-7MeW-K(Ac)-Pen*-AEF-2Nal-THP-E-N-3Pya-K(PEG2PEG2gEC18OH)-CONH2]
2 | 0.12 | CC(=O)NCCCC[C@@H]1NC(=O)[C@H](Cc2c[nH]c3c(C)cccc23)NC(=O)[C@H]([C@@H](C)O)NC(=O)[C@H](CC(N)=O)NC(=O)[C@@H](NC(=O)[C@@H](CCCNC(=N)N)NC(C)=O)C(C)(C)SSC(C)(C)[C@@H](C(=O)N[C@@H](Cc2ccc(OCCN)cc2)C(=O)N[C@@H](Cc2ccc3ccccc3c2)C(=O)NC2(C(=O)N[C@@H](CCC(=O)O)C(=O)N[C@@H](CC(N)=O)C(=O)N[C@@H](Cc3cccnc3)C(=O)N[C@@H](CCCCNC(=O)COCCOCCNC(=O)COCCOCCNC(=O)CC[C@H](NC(=O)CCCCCCCCCCCCCCC(=O)O)C(=O)O)C(N)=O)CCOCC2)NC1=O [Example 23, MeCO-r-Pen*-N-T-7MeW-K(Ac)-Pen*-AEF-2Nal-THP-E-N-3Pya-K(PEG2PEG2gEC16OH)-CONH2]

More lines, now with the values behind:

Row | SMILES | IC50 [nM]
3 | CC(=O)NCCCC[C@@H]1NC(=O)[C@H](Cc2c[nH]c3c(C)cccc23)NC(=O)[C@H]([C@@H](C)O)NC(=O)[C@H](CC(N)=O)NC(=O)[C@@H](NC(=O)[C@@H](CCCNC(=N)N)NC(C)=O)C(C)(C)SSC(C)(C)[C@@H](C(=O)N[C@@H](Cc2ccc(OCCN)cc2)C(=O)N[C@@H](Cc2ccc3ccccc3c2)C(=O)NC2(C(=O)N[C@@H](CCCCNC(=O)COCCOCCNC(=O)COCCOCCNC(=O)CC[C@H](NC(=O)CCCCCCCCCCCCCCC(=O)O)C(=O)O)C(=O)N[C@@H](CC(N)=O)C(=O)N[C@@H](Cc3cccnc3)C(=O)N(C)CC(N)=O)CCOCC2)NC1=O [Example 28, MeCO-r-Pen*-N-T-7MeW-K(Ac)-Pen*-AEF-2Nal-THP-K(PEG2PEG2gEC16OH)-N-3Pya-Sar-CONH2] | 0.021
4 | CC(=O)NCCCC[C@@H]1NC(=O)[C@H](Cc2c[nH]c3c(C)cccc23)NC(=O)[C@H]([C@@H](C)O)NC(=O)[C@H](CC(N)=O)NC(=O)[C@@H](NC(C)=O)C(C)(C)SSC(C)(C)[C@@H](C(=O)N[C@@H](Cc2ccc(OCCN)cc2)C(=O)N[C@@H](Cc2ccc3ccccc3c2)C(=O)NC2(C(=O)N[C@@H](CCCCNC(=O)CC[C@H](NC(=O)CCCCCCCCCCCCCCCCC(=O)O)C(=O)O)C(=O)N[C@@H](CC(N)=O)C(=O)N[C@@H](Cc3cccnc3)C(=O)N(C)CC(N)=O)CCOCC2)NC1=O [Example 30, MeCO-Pen*-N-T-7MeW-K(Ac)-Pen*-AEF-2Nal-THP-K(gEC18OH)-N-3Pya-Sar-CONH2] | 0.17
5 | CC(=O)NCCCC[C@@H]1NC(=O)[C@H](Cc2c[nH]c3c(C)cccc23)NC(=O)[C@H]([C@@H](C)O)NC(=O)[C@H](CC(N)=O)NC(=O)[C@@H](NC(C)=O)C(C)(C)SSC(C)(C)[C@@H](C(=O)N[C@@H](Cc2ccc(OCCN)cc2)C(=O)N[C@@H](Cc2ccc3ccccc3c2)C(=O)NC2(C(=O)N[C@@H](CCCCNC(=O)CCOCCOCCOCCOCCOCCOCCNC(=O)CC[C@H](NC(=O)CCCCCCCCCCCCCCCCC(=O)O)C(=O)O)C(=O)N[C@@H](CC(N)=O)C(=O)N[C@@H](Cc3cccnc3)C(=O)N(C)CC(N)=O)CCOCC2)NC1=O [Example 33, MeCO-Pen*-N-T-7MeW-K(Ac)-Pen*-AEF-2Nal-THP-K(PEG6gEC18OH)-N-3Pya-Sar-CONH2] | 0.046
